Results on one compound are retold here after patent publication US20110151020A1, “ACTIVE SUBSTANCE COMBINATION WITH GEMCITABINE FOR THE TREATMENT OF EPITHELIAL CANCER” (priority 2008, published 2011).

For one test, the system named is Gli1. Nature of the test: Hedgehog activation / Gli expression (rtPCR). The class given is cell-based, human.
Test [1] concerns pretreated Qtracker-labeled pancreatic cancer cells. In words: Systemic infusion assay of pretreated cells (lung metastasis). Type of test: in vivo, mice. The settings on record: cells pretreated in vitro, systemically infused; lungs scanned. The source says: Recently, the inventors have shown that the chemokine receptor CXCR4 and its specific lig- and Stromal-Derived Factor-1 (SDF-1) plays a pivotal role in metastasis of pancreatic CSC (see Hermann et al., 2007, supra). […] Pretreated and Qtracker-labeled cells were systemically infused. Seeded cells were tracked using near infrared scanning of the lungs as the primary target organ. Positive signals were confirmed by histological analysis.
In vitro treatment of pancreatic cancer cells. […] For the evaluation of the in vivo tumorigenicity, […] L3.6pl cells were pretreated with the respective regimen and the remaining viable cells were orthotopically implanted into the pancreas of nude mice and evaluated on day 35. For the systemic infusion assay, cells were labelled with the Qtracker 800 labelling kit (Invitrogen) according to the manufacturer's instructions, and 5×10^5 cells were injected intravenously into mice. After 4 weeks, explanted lungs were scanned for metastases with a near-infrared imaging platform (Odyssey, Li-cor, Lincoln, Nebr.). Positive signals were verified by histology (H&E staining).

Another test deals with pancreatic cancer cells. Nature of the test: Transmigration assay (modified Boyden chamber, SDF-1 stimulus). Type of test: cell-based, human. Conditions: SDF-1 as migratory stimulus.

`CC1=C2C[C@H]3[C@@H](CC=C4C[C@@H](O)CC[C@@]43C)[C@@H]2CC[C@]12O[C@@H]1C[C@H](C)CN[C@H]1[C@H]2C` [Cyclopamine, 11-deoxojervine]: the “decrease in hedgehog activation” value in the test with Gli1 was 40%. Moreover, the “metastatic activity in vivo” value in test [1] is reported as “tended to be reduced”. Also, in the test on pancreatic cancer cells, the migratory activity result is “strong reduction”.
